{
  "source": "patent US20220288277A1",
  "about": "“SURFACE COATINGS AND IMPLANTABLE DEVICES COMPRISING DIMERIC STEROID PRODRUGS, AND USES THEREOF” (Ripple Therapeutics Corporation, priority 2019, published 2022)",
  "type_in_all_cases": "physicochemical",
  "key": {"[1]": {"test": "Coating retention / drug release from coated substrates in 100% FBS at 37 C, HPLC", "settings": "drop coated on substrate (7 mm^2), agitation", "method": "Compound 1 was drop coated with the same total amount of compound 1 from an organic solution (acetone) onto SIBS films, Dacron films, and fibrous Dacron meshes, and drug release was carried out in 100% FBS at 37 C. The coating was extracted from the substrates at different time points and was plotted as a percentage of coating retained over time (FIG. 4).\nSubstrates coated with Compound 1 by drop coating or spray coating were incubated in fetal bovine serum (FBS) to determine the amount of Compound 1 retained over time. Each coated substrate was placed in a glass vial containing 4 mL FBS and incubated at 37° C. on a rotating platform. After 1 to 4 days, the remaining coating was extracted and was determined by HPLC (FIG. 9). The amount of Compound 1 retained following 1-day incubation in FBS ranged from 15 to 100% of the initial amount loaded and roughly correlated with thickness (total loading) of the coating.\nTo study the drug release from coated surfaces, Compound 4 was drop coated on a substrate (surface area of 7 mm^2) and solvent was evaporated to form the surface coating. Drug release was carried out in 100% FBS and agitation at 37 C with buffer changes and was monitored by HPLC."}, "[2]": {"test": "In vitro drug release profiles from coated discs", "settings": "coated discs (FIG. 18B)"}, "[3]": {"test": "Drug release from coated surfaces and extruded cylinders in PBS at 37 C, monitored by HPLC", "settings": "drop coated from DCM onto glass vial; PBS at 37 C with buffer changes", "from_the_text": "As stated herein, “t50” is the time at which 50% of the releasable drug has been released from a surface coating or drug depot of the disclosure. Time t10 is, correspondingly, the time at which 10% of the releasable drug has been released from a surface coating or drug depot of the disclosure. When the release curve is perfectly linear, t10=⅕ of t50. When there is an initial burst of released drug, t10 is much less than ⅕ of t50. In the compositions and methods of the disclosure t10 can be equal to or greater than 1/10 of t50. Drug release from a surface coating, drug depot, or compound of the disclosure can be measured at 37° C. in 100% bovine serum, or at 37° C. in PBS (phosphate buffered saline), as described in Example 1. […]\nCompound 2 was dissolved in DCM and was drop coated onto the bottom of a glass vial and solvent was evaporated to form the surface coating. Drug release was carried out in PBS at 37 C with buffer changes and was monitored by HPLC.\nCompound 3 was dissolved in DCM and was drop coated onto the bottom of a glass vial and solvent was evaporated to form the surface coating. Drug release was carried out in PBS at 37 C with buffer changes and was monitored by HPLC. […]"}},
  "data": [
    {"substance": "dexamethasone-hexane-dexamethasone [Compound 4]", "values": [
      {"measurement": "Cumulative drug release from the coated surface", "setting": "[1]", "result": "consistent drug release"},
      {"measurement": "In vitro drug release profile", "setting": "[2]", "result": "sustained release"}
    ]},
    {"substance": "triamcinolone acetonide-triethylene glycol-triamcinolone acetonide [Compound 3]", "values": [
      {"measurement": "Cumulative drug release from the coated surface", "setting": "[3]", "result": "consistent drug release"}
    ]}
  ]
}
